{"sequences": {"note": "Chains of the proteins cited; added tags and fusions are not shown.", "UniProt P14902, whole entry": "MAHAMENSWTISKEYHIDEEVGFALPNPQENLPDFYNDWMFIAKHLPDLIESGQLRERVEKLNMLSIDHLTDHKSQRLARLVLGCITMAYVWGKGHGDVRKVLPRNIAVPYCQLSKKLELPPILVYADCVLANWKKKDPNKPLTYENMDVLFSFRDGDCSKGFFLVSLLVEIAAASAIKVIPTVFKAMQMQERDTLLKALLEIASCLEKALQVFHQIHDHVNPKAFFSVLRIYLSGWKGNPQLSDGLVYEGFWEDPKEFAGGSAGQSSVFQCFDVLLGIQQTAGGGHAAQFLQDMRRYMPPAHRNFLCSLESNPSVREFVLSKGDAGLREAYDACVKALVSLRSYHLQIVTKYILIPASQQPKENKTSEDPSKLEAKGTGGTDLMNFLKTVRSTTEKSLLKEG"}, "source": "ChEMBL document CHEMBL4425176", "about": "“1,2,3-Triazoles as inhibitors of indoleamine 2,3-dioxygenase 2 (IDO2)” (Bioorg Med Chem Lett, 2016)", "biological_target": "Indoleamine 2,3-dioxygenase 1 (Homo sapiens, UniProt P14902)", "assay": "Inhibition of human IDO1 transfected in HEK293T cells assessed as kynurenine formation using L-Trp as substrate after 7 hrs", "format": "cell-based", "data": [{"smiles": "Oc1ccc(Cl)cc1-c1c[nH]nn1", "values": [{"measurement": "IC50", "value": 90, "unit": "nM"}]}]}
